Experiment [1] concerns the target LC3B-115 (residues 1-115) (human, UniProt Q9GZQ8 1-115). In words: ITC; 25 °C; 20 mM HEPES pH 7.5, 200 mM NaCl, 0.5 mM TCEP; 10~68 uM LC3B proteins in the cell, 10-fold higher concentration of ATG4b in the syringe; single-site binding model. To be noted: both partners purified.
For experiment [2], the target named is pro-LC3B (residues 1-125) (human, UniProt Q9GZQ8 1-120). Description: cell-based or functional assay.

The text below walks through data of paper PMC9631991 (Biochemistry, 2022).

B1: ATG4b WT (full-length ATG4b) (enzyme)
chain: MDAATLTYDTLRFAEFEDFPETSEPVWILGRKYSIFTEKDEILSDVASRLWFTYRKNFPAIGGTGPTSDTGWGCMLRCGQMIFAQALVCRHLGRDWRWTQRKRQPDSYFSVLNAFIDRKDSYYSIHQIAQMGVGEGKSIGQWYGPNTVAQVLKKLAVFDTWSSLAVHIAMDNTVVMEEIRRLCRTSVPCAGATAFPADSDRHCNGFPAGAEVTNRPSPWRPLVLLIPLRLGLTDINEAYVETLKHCFMMPQSLGVIGGKPNSAHYFIGYVGEELIYLDPHTTQPAVEPTDGCFIPDESFHCQHPPCRMSIAELDPSIAVGFFCKTEDDFNDWCQQVKKLSLLGGALPMFELVELQPSHLACPDVLNLSLDSSDVERLERFFDSEDEDFEILSL
The molecule B1 yielded a Kd in experiment [1] of 143 nM.

B2: ATG4b-382 (domain or fragment)
chain: MDAATLTYDTLRFAEFEDFPETSEPVWILGRKYSIFTEKDEILSDVASRLWFTYRKNFPAIGGTGPTSDTGWGCMLRCGQMIFAQALVCRHLGRDWRWTQRKRQPDSYFSVLNAFIDRKDSYYSIHQIAQMGVGEGKSIGQWYGPNTVAQVLKKLAVFDTWSSLAVHIAMDNTVVMEEIRRLCRTSVPCAGATAFPADSDRHCNGFPAGAEVTNRPSPWRPLVLLIPLRLGLTDINEAYVETLKHCFMMPQSLGVIGGKPNSAHYFIGYVGEELIYLDPHTTQPAVEPTDGCFIPDESFHCQHPPCRMSIAELDPSIAVGFFCKTEDDFNDWCQQVKKLSLLGGALPMFELVELQPSHLACPDVLNLSLDSSDVERLERFFD
B2: in experiment [2], the “fold decrease in KM of cleavage of the FRET substrate CFP-proLC3B-YFP, fold against ATG4b WT” value came out at 2.8 fold.
